The assay deals with GST-VCA. Put plainly: AUC.

Take “latrunculin B-bound actin (from UniProt P68135 1-377) (natural protein)”: the stoichiometry N is 2.

Broadly, the stoichiometry N is a count of units in the complex or per binding partner.
